Protein sequences, listed by entry. Tags and fused reporters are not part of them.
Protein disulfide-isomerase A6 (Homo sapiens), Q15084, UniProt Q15084, whole entry, looked up: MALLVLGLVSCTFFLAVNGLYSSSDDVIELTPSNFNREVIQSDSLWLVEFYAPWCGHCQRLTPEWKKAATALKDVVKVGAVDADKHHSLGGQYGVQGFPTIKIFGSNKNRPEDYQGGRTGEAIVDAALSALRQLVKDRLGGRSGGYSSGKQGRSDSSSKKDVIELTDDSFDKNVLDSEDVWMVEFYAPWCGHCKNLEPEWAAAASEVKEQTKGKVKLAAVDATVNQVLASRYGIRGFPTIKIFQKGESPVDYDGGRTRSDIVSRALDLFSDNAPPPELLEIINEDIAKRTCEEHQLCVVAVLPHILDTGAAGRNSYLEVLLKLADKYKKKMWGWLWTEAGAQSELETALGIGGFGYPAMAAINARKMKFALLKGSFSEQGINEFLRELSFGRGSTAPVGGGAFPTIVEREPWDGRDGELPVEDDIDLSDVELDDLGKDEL
Protein disulfide-isomerase (Homo sapiens), P07237, UniProt P07237, whole entry, looked up: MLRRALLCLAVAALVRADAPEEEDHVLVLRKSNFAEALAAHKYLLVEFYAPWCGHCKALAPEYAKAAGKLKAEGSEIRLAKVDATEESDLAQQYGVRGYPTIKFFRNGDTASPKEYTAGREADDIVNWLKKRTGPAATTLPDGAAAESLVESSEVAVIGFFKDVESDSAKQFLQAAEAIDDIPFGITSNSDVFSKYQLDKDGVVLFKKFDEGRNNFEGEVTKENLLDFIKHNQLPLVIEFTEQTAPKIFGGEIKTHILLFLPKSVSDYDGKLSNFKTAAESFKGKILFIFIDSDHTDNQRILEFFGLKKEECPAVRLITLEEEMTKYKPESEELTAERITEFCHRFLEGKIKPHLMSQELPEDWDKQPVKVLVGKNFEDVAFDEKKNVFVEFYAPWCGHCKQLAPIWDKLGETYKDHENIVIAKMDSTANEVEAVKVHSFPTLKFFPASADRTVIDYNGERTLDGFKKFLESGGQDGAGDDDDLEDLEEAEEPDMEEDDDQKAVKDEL

# ERp5 inh: inhibitors of ERp5-driven insulin aggregation, primary screen, biochemical, turbidity, absorbance 650 nm, single point. Protein disulfide-isomerase A6 (Homo sapiens), Q15084. 90 min. inhibition, % at 9.99 µM. 350,000 compounds, 0.05% hits. AID 651711, 2012;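 active = mean replicate inhibition above about 25%, with every replicate also reaching it, limit read from the data, passing the limit was not always enough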
# UUG fidelity: alters start codon recognition fidelity in yeast; S. cerevisiae UUG-firefly luciferase reporter, luminescence/redox ratio; activity score, % at 18.7 µM; hit rate 0.13% among 350,000;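 active = replicate mean at a twofold rise or more, about +100% in these data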;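 also: firefly luciferase made from a UUG start codon reports start codon fidelity; reporter light over untreated wells divided by growth signal over untreated wells; some hits fall short of that in this replicate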
# S100A4 MyoIIA: inhibitors of S100A4-myosin IIA peptide binding, primary screen, biochemical, fluorescence polarization, TAMRA-MyoIIA peptide. Protein S100-A4 (Homo sapiens), P26447. inhibition, % at 10.7 µM. 360,000 compounds, 0.14% hits;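 active = mean inhibition of at least 70% across replicates, with every replicate also reaching that level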
#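 Material: S100A4 monomer protein | Medium: HEPES pH 7.2 with CaCl2, KCl, NaCl, DTT, Triton | Reagent: Labelled myosin peptide probe, 5 nM | Doses: One dose per compound | Times: 5 min incubation before reading | Benchmarks: Neutral control DMSO, positive control TFP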
# SIRT5 block: SIRT5 desuccinylase inhibitors, primary screen, biochemical, fluorescence imaging, single point, set 5. inhibition, % at 15 µM. 330,000 compounds, 1.1% hits. NAD-dependent protein deacylase sirtuin-5, mitochondrial (Homo sapiens), Q9NXA8. Purified SirT5, succinyl-peptide AMC, trypsin-coupled fluorescence; in the data active = inhibition above about 15%
# PDI turbidity: inhibitors of human PDI, primary screen, biochemical, turbidity, single point, plate reader | Protein disulfide-isomerase (Homo sapiens), P07237 | PDI insulin aggregation turbidity, A650, 90 min | inhibition, % at 10 µM | 350,000 compounds, 0.052% hits;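 active = mean inhibition across replicates of 30% or more, whatever share of single replicates reach that level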
# FGF22 binding: binders of human FGF22 protein, primary screen, FGF22 synaptogenesis inhibitor project, biophysical, thermal shift, single point; 340,000 compounds, 1.5% hits; recombinant FGF22 thermal shift, SYPRO orange fluorescence; percent of sucrose octasulfate shift, DMSO zero; activity (Tm shift, normalised), % at 9.99 µM;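 active = mean Tm shift, scaled 0 neutral to 100 positive control, at about 1.3% or above, every replicate too, limit read from the data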
# Starred values were filed as active, the others as inactive; nt = no result. Shown are actives, neighbours in structure and some others; about 2.2% of the full set was active somewhere.
smiles | FGF22 binding | ERp5 inh | SIRT5 block | PDI turbidity | UUG fidelity | S100A4 MyoIIA
O=S(=O)(Nn1cnnc1)c1ccc2ccccc2c1 | 43* | -4 | 1 | -14 | -18 | 3
C[C@@H]1CN([C@@H](C)CO)S(=O)(=O)c2ccc(Br)cc2O[C@H]1CN(C)Cc1cccnc1 | 0 | 3 | 3 | nt | 7 | 15
CCCS(=O)(=O)N1CCN(C2Cc3ccccc3C2)CC1 | 0 | -5 | 17* | 0 | nt | -6
O=C(c1ccc2c(c1)OCO2)N1CC2(C1)[C@H](c1ccccc1)[C@@H](CO)N2C(=O)C1CCC1 | 0 | -5 | 7 | nt | nt | -3
Cc1cc(C)nc(N2CCCC(C(=O)NCc3ccc4c(c3)OCO4)C2)n1 (stereo not drawn) | 43* | -8 | -8 | -3 | nt | 2
Cc1ccc(S(=O)(=O)N2CCCC2CNC(=O)C(=O)NCc2ccc3c(c2)OCO3)cc1 (stereo not drawn) | 43* | 0 | nt | 12 | -19 | 1
Clc1ccccc1-c1nnc(CNC2CC2)o1 | 44* | -2 | -4 | 1 | nt | -2
CN1CCN(S(=O)(=O)c2cc([N+](=O)[O-])ccc2Cl)CC1 | 43* | 1 | -3 | 2 | nt | 8
CCCNC(=O)N1C[C@H](O)COC[C@H]2O[C@@H](CC(=O)OC)CC[C@@H]21 | 0 | -4 | -4 | nt | nt | 1
O=C(Cc1ccccn1)N[C@@H]1CC[C@H](CCn2cc(-c3ccc(F)cc3)nn2)O[C@H]1CO | nt | -6 | -4 | nt | nt | -25
Cc1ccc(C2=C(CC(=O)O)C(=O)CC2)cc1 | nt | nt | nt | -2 | -24 | nt
COC(=O)CC1=C(c2ccc([N+](=O)[O-])cc2)CCC1=O | 0 | -4 | 16* | -9 | -12 | -14
O=C(NNS(=O)(=O)c1ccc(Br)cc1)c1sccc1-n1cccc1 | 44* | -16 | 2 | 4 | nt | 2
CC(C)C(NC(=O)c1ccccc1Br)c1ccccc1 (stereo not drawn) | 43* | 1 | 0 | 0 | nt | 2
O=C(N[C@H]1CC[C@H](CCNS(=O)(=O)Cc2ccccc2)O[C@H]1CO)c1cnccn1 | nt | nt | 0 | nt | nt | nt
O=C(COC(=O)CNC(=O)c1ccc(Cl)cc1Cl)NC1CC1 | 43* | 4 | nt | 2 | -17 | -4
O=C(CNC(=O)c1ccc(Cl)cc1Cl)OCc1cn2cc(Br)ccc2n1 | 0 | -2 | 1 | -8 | -10 | 74*
Cc1ccc(NC(=O)COC(=O)c2cc(Cl)ccc2[N+](=O)[O-])cc1 | 0 | 5 | 2 | -4 | nt | 3
O=C(COC(=O)c1cc(Cl)ccc1[N+](=O)[O-])NC1CC1 | 0 | 7 | 16* | 0 | -8 | 4
CN(/N=C/c1ccc2c(c1)OCO2)c1nc(N2CCOCC2)nc(N2CCOCC2)n1 | 0 | 0 | -6 | -6 | nt | 8
O=c1nc(N2CCOCC2)nc(N/N=C/c2ccc3c(c2)OCO3)[nH]1 | 44* | -1 | 7 | -4 | nt | -5
O=C1NC(=S)S/C1=C\C=C\c1ccc([N+](=O)[O-])o1 | 0 | 5 | 25* | -1 | -1 | -9
COc1cccc(S(=O)(=O)N(C)C[C@@H]2Oc3cc(C4=CCCC4)ccc3S(=O)(=O)N([C@@H](C)CO)C[C@@H]2C)c1 | 0 | 4 | 15 | nt | -12 | 6
COc1cccc(S(=O)(=O)N(C)C[C@@H]2Oc3cc(C4=CCCC4)ccc3S(=O)(=O)N([C@H](C)CO)C[C@H]2C)c1 | 0 | 1 | 23* | nt | -10 | -6
COc1cccc(S(=O)(=O)N(C)C[C@@H]2Oc3cc(C4=CCCCC4)ccc3S(=O)(=O)N([C@H](C)CO)C[C@@H]2C)c1 | 0 | 1 | 26* | nt | nt | 3
CN(C)/C=N/c1nc2ncc(-c3ccc(Cl)cc3)c(/N=C/N(C)C)n2n1 | 43* | 2 | -1 | -9 | -15 | 3
CCC(=O)N1CCC2(CC1)CN(C(=O)Nc1ccccc1F)[C@@H](CO)c1[nH]c3cc(OC)ccc3c12 | 0 | nt | nt | nt | nt | nt
CCN(CC)CC#CCC(O)(c1ccccc1)C1CCCC1 (stereo not drawn) | 0 | 3 | 18* | 1 | -13 | -1
Cc1ccc(S(=O)(=O)N(CC(=O)N/N=C/c2ccccc2C(=O)O)c2cc(Cl)cc(Cl)c2)cc1 | 43* | 6 | -3 | -5 | nt | 0
C[C@@H]1CN([C@@H](C)CO)S(=O)(=O)c2ccc(-c3ccccc3)cc2O[C@@H]1CN(C)C(=O)Cc1ccccc1 | 0 | 0 | 7 | nt | 16 | 8

# Of the compounds above, these contain fluorine:
smiles | FGF22 binding | ERp5 inh | SIRT5 block | PDI turbidity | UUG fidelity | S100A4 MyoIIA
O=C(Cc1ccccn1)N[C@@H]1CC[C@H](CCn2cc(-c3ccc(F)cc3)nn2)O[C@H]1CO | nt | -6 | -4 | nt | nt | -25
CCC(=O)N1CCC2(CC1)CN(C(=O)Nc1ccccc1F)[C@@H](CO)c1[nH]c3cc(OC)ccc3c12 | 0 | nt | nt | nt | nt | nt

# (list continues)
smiles | FGF22 binding | ERp5 inh | SIRT5 block | PDI turbidity | UUG fidelity | S100A4 MyoIIA
COc1cccc(CN(C)C(=O)c2ccc(S(=O)(=O)Nc3ccccc3F)cc2)c1OC | 0 | -1 | 0 | -4 | 24 | -4
COc1cccc(CN(C)C(=O)c2ccc(S(=O)(=O)Nc3cccc(C)c3C)cc2)c1OC | 0 | -7 | 17* | 3 | 3 | 6
C/C=C/c1ccc2c(c1)O[C@H](CN(C)Cc1cccc(F)c1)[C@@H](C)CN([C@H](C)CO)S2(=O)=O | 0 | -138 | -1 | nt | -9 | 16
COc1ccc2c3c([nH]c2c1)[C@H](CO)N(C(=O)c1ccc(F)cc1)CC31CCN(C(=O)Nc2ccc(F)cc2)CC1 | 0 | 1 | 5 | nt | nt | 3
COc1ccc2c3c([nH]c2c1)[C@H](CO)N(C(=O)c1ccc(F)cc1)CC31CCN(C(=O)Nc2cccc(F)c2)CC1 | 0 | 66* | 1 | nt | nt | -1
COc1ccc2c3c([nH]c2c1)[C@@H](CO)N(C(=O)c1ccc(F)cc1)CC31CCN(C(=O)Nc2cccc(F)c2)CC1 | 0 | 63* | 5 | nt | nt | 12
COc1ccc2c3c([nH]c2c1)[C@H](CO)N(C(=O)c1ccc(F)cc1)CC31CN(C(=O)Nc2cccc(F)c2)C1 | 0 | -1 | -2 | nt | nt | 6
COc1ccc2c3c([nH]c2c1)[C@@H](CO)N(C(=O)Cc1ccccc1)CC31CCN(C(=O)Nc2ccccc2F)CC1 | 0 | -2 | -2 | nt | nt | 3
CCCNC(=O)N1C[C@@H](C)[C@@H](OC)CN(C)C(=O)c2cc(NS(C)(=O)=O)ccc2OC[C@H]1C | 0 | 2 | -8 | nt | nt | -7
Cc1ccc(S(=O)(=O)N(C)C[C@@H]2Oc3ccc(NS(=O)(=O)c4ccc(F)cc4)cc3C(=O)N([C@@H](C)CO)C[C@H]2C)cc1 | 0 | nt | nt | nt | 5 | nt
O=C(Nc1ccccc1F)N1CC(=O)N2[C@H](CO)[C@H](c3ccc(C#Cc4ccc(F)cc4)cc3)[C@H]2C1 | nt | -1 | 2 | nt | nt | -7

# Individual results from above:
# `COc1cccc(CN(C)C(=O)c2ccc(S(=O)(=O)Nc3cccc(C)c3C)cc2)c1OC` in UUG fidelity is listed with 3
# `C/C=C/c1ccc2c(c1)O[C@H](CN(C)Cc1cccc(F)c1)[C@@H](C)CN([C@H](C)CO)S2(=O)=O` in ERp5 inh is listed with -138
# `COc1ccc2c3c([nH]c2c1)[C@H](CO)N(C(=O)c1ccc(F)cc1)CC31CN(C(=O)Nc2cccc(F)c2)C1` in S100A4 MyoIIA is listed with 6
